Consider 1 compound from the NIST ThermoML archive (doi:10.1021/acs.jced.5b00980).

Numbers after ± are expanded uncertainties.

The data set in a line: activity coefficient (dimensionless); of the first substance listed, at infinite dilution; xn = mol fraction of the nth substance listed. Particulars: 100 kPa, Liquid, Chromatography, x1 = 0.

Take `CCCCOCCCC` [dibutyl ether] + CCCC[P+](CC)(CCCC)CCCC.CCOP(=O)([O-])OCC: the activity coefficient is 3.79 ± 0.26 (328.15 K); 3.68 ± 0.25 (338.15 K); 3.54 ± 0.24 (348.15 K); 3.42 ± 0.23 (358.15 K); 3.31 ± 0.23 (368.15 K).
